According to US9884860B2, “Fused pyrroledicarboxamides and their use as pharmaceuticals” (SANOFI, priority 2012, dated 2018):
pIC50: −log10 of the molar value.

Amino acid sequences for entries named in this document (tags omitted). A change or cut given only in a name is not applied to a line headed by its entry.
UniProt O14649: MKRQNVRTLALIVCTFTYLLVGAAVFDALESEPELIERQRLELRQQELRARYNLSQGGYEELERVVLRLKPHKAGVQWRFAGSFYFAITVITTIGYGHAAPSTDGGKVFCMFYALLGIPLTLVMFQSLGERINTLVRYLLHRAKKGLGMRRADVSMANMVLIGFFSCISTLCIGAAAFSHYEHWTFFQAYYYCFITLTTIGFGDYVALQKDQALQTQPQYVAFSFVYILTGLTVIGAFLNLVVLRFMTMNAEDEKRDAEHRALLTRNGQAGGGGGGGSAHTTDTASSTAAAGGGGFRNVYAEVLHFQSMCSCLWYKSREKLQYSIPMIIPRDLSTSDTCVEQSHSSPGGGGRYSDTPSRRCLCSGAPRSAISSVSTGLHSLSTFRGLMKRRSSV

Molecular target: Human TASK-1 channels (Homo sapiens (Human), UniProt O14649)
Experiment: Determination of the activity on the TASK-1 channel in Xenopus oocytes (two-microelectrode voltage clamp)
Type: cell-based
Conditions: human TASK-1 expressed in Xenopus oocytes, room temperature; read-out: IC50 value for TASK-1 inhibition
Protocol: Determination of the activity on the TASK-1 channel in Xenopus oocytes
Human TASK-1 channels were expressed in Xenopus oocytes. For this purpose, oocytes were isolated from Xenopus laevis and defoliculated. Subsequently, TASK-1-encoding RNA synthesized in vitro was injected into the oocytes. After two days of TASK-1 protein expression, TASK-1 currents were measured by two-microelectrode voltage clamp. Data were acquired and analyzed using a TEC-10cx amplifier (NPI Electronic, Tamm, Germany) connected to an ITC-16 interface (Instrutech Corp., Long island, USA) and Pulse software (HEKA Elektronik, Lambrecht, Germany). Oocytes were clamped to −90 mV and TASK-1 mediated currents were measured during 500 ms voltage pulses to 40 mV. Oocytes were continuously superfused with ND96 buffer containing 98 mM sodium chloride, 2 mM potassium chloride, 1.8 mM calcium chloride, 1 mM magnesium chloride, 5 mM 4-(2-hydroxyethyl)-piperazine-1-ethanesulfonic acid (HEPES: pH adjusted to 7.4 with sodium hydroxide). All experiments were performed at room temperature. Test compounds were consecutively added to the bath solution at rising concentrations. Compound effects were calculated as the percentage inhibition of TASK-1 control current before compound addition. IC50 values were obtained by fitting the data to the general dose-response equation.

pIC50: 7.34
Substance: 3,4-Dihydro-1H-pyrrolo[2,1-c][1,4]thiazine-6,8-dicarboxylic acid 8-{[(R)- 1-(4-fluoro-phenyl)-ethyl]-amide} 6-[((R)-1-phenyl-propyl)-amide] [16kq]
